From ChEMBL document CHEMBL1124756, “The discovery of potent nonpeptide angiotensin II receptor antagonists: a new class of potent antihypertensives” (J Med Chem, 1990)

The chains behind the UniProt entries cited, without tags or fusion partners. Where a name states a change or a piece, a line headed by the entry shows the natural chain unless it says otherwise.
UniProt P29089: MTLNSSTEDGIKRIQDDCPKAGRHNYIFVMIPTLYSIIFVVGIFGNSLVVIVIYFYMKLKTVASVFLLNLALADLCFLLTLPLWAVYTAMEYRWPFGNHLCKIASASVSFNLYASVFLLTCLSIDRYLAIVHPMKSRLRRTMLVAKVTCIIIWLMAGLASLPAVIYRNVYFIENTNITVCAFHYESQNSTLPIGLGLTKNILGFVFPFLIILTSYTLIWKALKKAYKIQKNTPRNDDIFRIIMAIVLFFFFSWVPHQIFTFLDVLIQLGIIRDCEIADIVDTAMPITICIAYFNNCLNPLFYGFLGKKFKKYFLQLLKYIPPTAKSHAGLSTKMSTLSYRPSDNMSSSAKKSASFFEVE
UniProt P25095: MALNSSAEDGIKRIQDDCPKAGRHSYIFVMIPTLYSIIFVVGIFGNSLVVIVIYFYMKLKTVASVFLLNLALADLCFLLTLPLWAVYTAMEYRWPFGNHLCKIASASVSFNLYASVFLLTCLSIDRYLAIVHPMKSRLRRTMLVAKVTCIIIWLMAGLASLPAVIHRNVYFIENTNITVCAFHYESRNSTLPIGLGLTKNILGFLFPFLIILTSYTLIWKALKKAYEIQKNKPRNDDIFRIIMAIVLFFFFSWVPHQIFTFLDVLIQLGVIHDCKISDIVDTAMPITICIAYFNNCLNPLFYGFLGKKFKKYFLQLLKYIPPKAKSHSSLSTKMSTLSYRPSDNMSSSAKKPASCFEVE
UniProt P35351: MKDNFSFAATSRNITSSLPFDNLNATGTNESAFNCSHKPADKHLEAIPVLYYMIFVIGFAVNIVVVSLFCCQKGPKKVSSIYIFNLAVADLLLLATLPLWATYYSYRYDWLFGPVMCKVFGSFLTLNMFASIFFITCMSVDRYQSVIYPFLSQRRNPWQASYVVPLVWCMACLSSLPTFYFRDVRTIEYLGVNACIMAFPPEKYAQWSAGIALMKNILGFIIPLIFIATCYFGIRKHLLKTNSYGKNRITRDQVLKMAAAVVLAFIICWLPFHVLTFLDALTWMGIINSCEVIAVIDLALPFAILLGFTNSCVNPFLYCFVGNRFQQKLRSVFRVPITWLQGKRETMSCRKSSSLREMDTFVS

Molecular target: Angiotensin II receptor (Rattus norvegicus, UniProt P29089+P25095+P35351)
Assay: Inhibitory concentration that gave 50 percent displacement of specific binding of [3H]AII (2 nM) to Angiotensin II receptor
Format: protein assay
Method in brief: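 Rat adrenal cortical microsomes from male Sprague–Dawley rats, resuspended in 50 mM Tris pH 7.2, 5 mM MgCl2, 0.25% BSA. Membranes (0.02–0.03 mg protein) incubated with [3H]AII 2 nM plus varying inhibitor concentrations, 60 min at 25 °C with shaking. Glass-fiber filtration, scintillation counting, duplicates. Nonspecific binding defined with 1 μM unlabeled AII. IC50 taken from linear portion of displacement curve.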

Q: With CCCCc1nc(Cl)c(CC(=O)O)n1Cc1ccccc1Cl as the compound, how does the IC50 read?
A: Its IC50 is 40 µM.
